Compound activity deposited in PubChem by Broad Institute.
Hits are enriched below; roughly 1.3% of the tested compounds scored in any of these assays.
Yeast UUG start: yeast start codon fidelity modulation; AID 602363; activity score, % at 18.7 µM; S. cerevisiae UUG-firefly luciferase reporter, luminescence/redox ratio; 0.13% of 350,000 active;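 active means replicate mean at a twofold rise or more, about +100% in these data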;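 further: firefly luciferase made from a UUG start codon reports start codon fidelity; reporter light over untreated wells divided by growth signal over untreated wells; some hits fall short of that in this replicate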
F508del corr: CFTR F508del correction in bronchial cells; CFBE cells, YFP halide quenching; stimulated with forskolin plus potentiator P3; % fluorescence drop versus neutral controls; activity (quench increase), % at 7.58 µM; hit rate 0.36% among 350,000;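 active means mean added fluorescence quench of at least 8% versus neutral control, with both replicates also reaching 8%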;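 further: cells transiently co-express mutant CFTR-F508del with the halide-sensitive YFP; corrector assay measuring rescue of mutant channel to the surface after 24 h compound exposure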
miR-122 sensor: blocks miR-122 activity in Huh7 sensor cells; Huh7 miR-122 Renilla luciferase sensor, 48 h; neutral wells = 0, positive control = 100; activation (reporter increase), % at 12.5 µM; hit rate 0.3% among 340,000;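 active means mean replicate activation score at least 90 and every replicate individually at or above 90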;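 further: higher luciferase means less miR-122 activity so hits act as miR-122 inhibitors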
EWS-Fli block: inhibitors of EWS/Fli oncoprotein transcriptional activity | A673 NR0B1-luciferase reporter, viability-normalised | inhibition, % at 12.6 µM | hit rate 0.67% among 350,000;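 active means mean inhibition of at least 50% after viability correction, with every replicate also passing that limit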;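 further: firefly luciferase signal divided by Alamar Blue viability fluorescence both relative to DMSO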
LGR2 antag: inhibitors of bursicon-induced Drosophila LGR2 receptor cAMP signaling. HEK293 LGR2, CRE-luciferase, bursicon-stimulated, 4 h. AID 720647. inhibition, % at 9.99 µM. hit rate 0.35% among 380,000;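 active means drop in luminescence signal, shown as inhibition above about 50% in the replicate tests, limit read from the data, passing the limit was not always enough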;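 further: agonist challenge used bursicon conditioned medium at about half maximal strength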
PglD inh: blocks C. jejuni PglD acetyltransferase activity. purified PglD enzyme, DTNB colorimetric CoA detection. inhibition, % at 12.5 µM. hit rate 0.098% among 360,000; in the data active means inhibition above about 16%, passing the limit was not always enough
Of the large screens only hits and unclear results are named; the others gave an inactive call; ! = repeats disagree; [ ] = dose if it differs, or a comment.

CC1(C(=O)NCCC(F)(F)F)Cc2c(-c3cccc(C(F)(F)F)c3)ccnc2O1 (configuration not stated)	none
CC1(C(=O)NCC2CCOCC2)Cc2c(-c3cccc(C(F)(F)F)c3)ccnc2O1 (configuration not stated)	EWS-Fli block 52.1
CC(=O)c1cccc(NC(=O)NCc2cccs2)c1	miR-122 sensor 103.3 (no result: F508del corr, EWS-Fli block, LGR2 antag)
CC(=O)c1cccc(NC(=O)NCc2ccccn2)c1	none (no result: LGR2 antag)
CC1(C(=O)NCCc2ccccc2)Cc2c(-c3ccc4c(c3)OCO4)ccnc2O1 (configuration not stated)	EWS-Fli block 57.5
C[C@H](O)C#Cc1ccc2c(c1)O[C@H](CN(C)C(=O)c1ccncc1)[C@H](C)CN([C@H](C)CO)S2(=O)=O	none
COc1ccccc1NC(=O)C(=O)NCC(c1ccco1)N1CCc2ccccc21 (configuration not stated)	F508del corr 9.8
O=C(NCC(c1ccco1)N1CCc2ccccc21)C(=O)Nc1ccc(F)cc1F (configuration not stated)	EWS-Fli block 57.6 (no result: miR-122 sensor)
CC(C)(C)c1cc(C(=O)N/N=C/c2ccc(F)cc2)n(-c2ccccc2)n1	none
C[C@H](CO)N1C[C@H](C)[C@H](CN(C)S(=O)(=O)c2cn(C)cn2)Oc2ccc(NS(=O)(=O)c3ccc(Cl)cc3)cc2CC1=O	none
CNC[C@@H]1Oc2ccc(NS(=O)(=O)c3cccs3)cc2CC(=O)N([C@@H](C)CO)C[C@H]1C	none
CC[C@H](CO)Nc1nc(Nc2cccc(Cl)c2)c2ncn(C(C)C)c2n1	LGR2 antag 57.7
CC1=NN(C(=O)c2ccccc2Cl)C(O)(c2cccnc2)C1 (configuration not stated)	none
COc1ccc(NC(=O)c2cc(-c3ccccc3Cl)on2)cc1	none
COc1cc(NC(=O)c2cc(-c3ccccc3Cl)on2)cc(OC)c1OC	EWS-Fli block 61.6
CC(C(=O)N=c1sc2ccccc2n1C)N1C(=O)C2CC=CCC2C1=O (configuration not stated)	none (no result: F508del corr, EWS-Fli block, LGR2 antag)
C[C@H](CO)N1C[C@H](C)[C@H](CN(C)Cc2ccc(Oc3ccccc3)cc2)Oc2ccc(NC(=O)Nc3ccc(C(F)(F)F)cc3)cc2C1=O	EWS-Fli block 56.0
C[C@@H]1CN([C@H](C)CO)C(=O)c2cc(-c3cccnc3)cnc2O[C@H]1CN(C)Cc1ccc(-c2ccccc2)cc1	EWS-Fli block 57.3 (no result: miR-122 sensor)
COc1ccc(NC(=O)Nc2ccc3c(c2)C(=O)N([C@@H](C)CO)C[C@H](C)[C@H](CN(C)Cc2ccc(C(F)(F)F)cc2)O3)cc1	miR-122 sensor 149.5[16.7 µM]
C[C@@H]1CN([C@H](C)CO)C(=O)c2cc(NC(=O)Nc3ccc(F)cc3)ccc2O[C@@H]1CN(C)Cc1ccc(-c2ccccc2)cc1	EWS-Fli block 63.6
C[C@@H]1CN([C@H](C)CO)C(=O)c2cc(NC(=O)Nc3ccc(F)cc3)ccc2O[C@H]1CN(C)Cc1ccc(-c2ccccc2)cc1	none
COc1ccc(C2Nc3ccccc3C(=O)N2Cc2ccccc2)cc1CN1CCOCC1 (configuration not stated)	none (no result: Yeast UUG start, miR-122 sensor, PglD inh)
CNC[C@@H]1OCCCC[C@H](C)Oc2ccc(NS(=O)(=O)c3ccc(C)cc3)cc2C(=O)N([C@@H](C)CO)C[C@@H]1C	none
C[C@@H]1CN([C@@H](C)CO)C(=O)c2cc(NC(=O)C3CC3)ccc2O[C@@H]1CN(C)Cc1ccc(Cl)c(Cl)c1	EWS-Fli block 56.5!
C[C@H]1CN([C@@H](C)CO)C(=O)c2cc(NC(=O)Nc3ccc(C(F)(F)F)cc3)ccc2O[C@@H]1CN(C)Cc1ccc(Cl)c(Cl)c1	EWS-Fli block 57.9
C[C@H]1CN([C@@H](C)CO)C(=O)c2cc(NC(=O)C3CC3)ccc2O[C@@H]1CN(C)Cc1ccc(Cl)c(Cl)c1	none
C[C@@H]1CN([C@@H](C)CO)C(=O)c2cc(NC(=O)Nc3ccc(C(F)(F)F)cc3)ccc2O[C@H]1CN(C)Cc1ccc(Cl)c(Cl)c1	none
CCC(C(=O)Nc1ccc(C(=O)Nc2ccccc2C(=O)O)cc1)c1ccccc1 (configuration not stated)	none (no result: EWS-Fli block)
COc1ccc2sc(NC(=O)c3ccco3)nc2c1	LGR2 antag 75.1
Cc1ccnc(NCc2cc(C)ccc2O)c1	miR-122 sensor 211.0
O=C(c1ccccc1)N1CCCC(C(=O)N2CCc3ccccc3C2)C1 (configuration not stated)	none (no result: F508del corr, EWS-Fli block, LGR2 antag)
CN(C)S(=O)(=O)c1ccc2c(c1)nc1n2CCC1	none (no result: Yeast UUG start, F508del corr, EWS-Fli block, LGR2 antag, PglD inh)
CC(C)N=C(NS(=O)(=O)c1ccccc1)C(Cl)(Cl)Cl	LGR2 antag 62.0 (no result: F508del corr)
O=S(=O)(NC(=S)c1ccccc1)c1ccccc1	none (no result: Yeast UUG start, miR-122 sensor, LGR2 antag, PglD inh)
O=C(c1cccs1)c1ccc(-c2cccs2)s1	LGR2 antag 61.8 (no result: Yeast UUG start, F508del corr, EWS-Fli block, PglD inh)
CCCCN(CCCC)CCCN1CC(=O)N2[C@@H](Cc3c([nH]c4ccccc34)C2(C)C)C1=O	none (no result: miR-122 sensor)
c1ccc(-n2ncc3c(N4CCCCC4)ncnc32)cc1	EWS-Fli block 74.9, LGR2 antag 60.9
Cc1ccc(-n2ncc3c(N4CCCC(C)C4)ncnc32)c(C)c1 (configuration not stated)	none (no result: PglD inh)
CC1CCCN(c2ncnc3c2cnn3-c2ccccc2)C1 (configuration not stated)	EWS-Fli block 68.7, LGR2 antag 83.9
CC1CCCN(c2ncnc3c2cnn3-c2ccc(Cl)cc2)C1 (configuration not stated)	EWS-Fli block 86.2, LGR2 antag 97.1
CO[C@H]1CN(C)C(=O)c2ccc(NC(=O)C3CCC3)cc2OC[C@@H](C)N(Cc2nccs2)C[C@H]1C	none
O=C1CCC(=O)N(O)CCCCCNC(=O)CCC(=O)N(O)CCCCNC(=O)CCC(=O)N(O)CCCCCN1	none (no result: LGR2 antag)
COCCNC(=O)C[C@H]1CC[C@H](NC(=O)NC2CCCCC2)[C@H](CO)O1	none (no result: Yeast UUG start, miR-122 sensor, EWS-Fli block)
Cc1ccc(N2CCN(C3=NC(=O)/C(=C\c4cn[nH]c4-c4ccccc4)S3)CC2)cc1	none (no result: Yeast UUG start, F508del corr, miR-122 sensor, EWS-Fli block, PglD inh)
O=C1N=C(N2CCN(c3ccccc3)CC2)S/C1=C\c1cn[nH]c1-c1ccccc1	LGR2 antag 59.9
CCOC(=O)CNC(=O)CSc1nnc(NC(=O)c2ccc3c(c2)OCO3)s1	none
CCOC(=O)CNC(=O)CSc1nnc(NC(=O)c2ccc(C)cc2)s1	LGR2 antag 72.7 (no result: Yeast UUG start, miR-122 sensor, PglD inh)
CC(C)Oc1ccc(C(=O)Nc2nnc(SCC(=O)N3CCOCC3)s2)cc1	EWS-Fli block 59.7, LGR2 antag 74.1 (no result: F508del corr)
CC(=O)Oc1ccc2c(=O)c(/C=N/c3cc(=O)[nH]c(=S)[nH]3)coc2c1	none
CC(C)CCNc1nc(-c2ccco2)c2c(c1C#N)CCCC2	none (no result: F508del corr, EWS-Fli block)
COc1ccc(S(=O)(=O)N(C)C[C@H]2Oc3ccc(NC(=O)Nc4ccccc4)cc3C(=O)N([C@H](C)CO)C[C@@H]2C)cc1	none
COc1ccc(NC(=O)C2CCCN2C(=O)Nc2cccc(F)c2)cc1 (configuration not stated)	F508del corr 9.7
